From patent publication US6069177A, “3-Hydroxy-propanamine derived neuronal reuptake inhibitors” (priority 1997, dated 2000)

System: hSERT, hNET, and hDAT
Assay: Simultaneous binding to cloned human transporters hSERT, hNET and hDAT
Details: for Simultaneous Transporter Binding Potency: Table 4, each of the potency values greater than 7.0; for Simultaneous Transporter Binding Potency (Human): Table 5, comparison of rat and human data

COc1ccc(C(CN(C)C)C2(O)CCCCC2)cc1 (stereo not drawn) [Effexor ®, reference compound]
Simultaneous Transporter Binding Potency: no | Simultaneous Transporter Binding Potency (Human): no

Fc1ccc([C@@H]2CCNC[C@H]2COc2ccc3c(c2)OCO3)cc1 [Paxil ®, reference compound]
Simultaneous Transporter Binding Potency: no | Simultaneous Transporter Binding Potency (Human): no

CNCCC(Oc1ccc(C(F)(F)F)cc1)c1ccccc1 (stereo not drawn) [Prozac ®, reference compound]
Simultaneous Transporter Binding Potency: no | Simultaneous Transporter Binding Potency (Human): no
